# Values of other authors in publication PMC4273976 (ACS chemical biology, 2014).
# Target: EphA4
# Settings: cited from earlier work
sequence,measurement,value
KYLPYWPVLSSL,Kd,~1 µM
